pIC50: −log10 of the molar value. Where two headings read alike, the source gives them in different places.
What was measured:
Assay in all cases: biochemical
DRB1*0405 = DRB1*0405 (Homo sapiens, UniProt P01903+P01911, A100R/A169T/D86S/F76Y/I96L/K127E/L162R/M171V/N62H/P40V/Q125Y/R42H/S133A/S149N/S66Y/V115G/V209L/W38E); assay type: binding
HLA-A3.2 (A*0301) = HLA-A3.2 (A*0301) (Homo sapiens, UniProt P04439); assay type: binding
A31 (A*3101) = A31 (A*3101) (Homo sapiens, UniProt P04439, A270S/D185E/E176V/E277Q/F33T/G231S/G80R/H175R/I121M/I218V/I322F/K168Q/L300P/L318F/M331R/P217A/Q94H/R138Q/T323A/T345S/T97I/V358M); assay type: binding
A*3301 = A*3301 (Homo sapiens, UniProt P04439, A270S/D185E/E176V/E277Q/E87N/F33T/G231S/H175R/I121M/I218V/I322F/K168Q/K210R/L300P/L318F/M331R/P217A/Q86R/Q94H/R138Q/T323A/T345S/T97I/V358M/Y195H); assay type: binding
A*6801 = A*6801 (Homo sapiens, UniProt P04439, A269V/D185E/E176V/E277Q/E87N/F33Y/G231S/I121M/I166T/I218V/L180W/L300P/L318F/N151K/P208A/P217A/Q86R/R169H/T345S); assay type: binding
DRB1*1302 = DRB1*1302 (Homo sapiens, UniProt P01903+P01911, A100E/A169T/K41T/L162R/M171V/P40S/Q125H/Q178H/Q39Y/Q99D/R42S/S66N/T262R/V115G/W38E/Y61H)
DRB1*0802 = DRB1*0802 (Homo sapiens, UniProt P01903+P01911, A100R/A103L/A169T/F76Y/H45Y/I96F/K41T/L162R/M171V/P40S/Q125H/Q178H/Q39Y/Q99D/R218S/R42G/S66Y/V115G/W38E)
A*2902 = A*2902 (Homo sapiens, UniProt P04439, A270S/D101N/D185E/E176V/E277Q/E87Q/F33T/G231S/H175R/I121M/I218V/I322F/K168Q/L300P/L318F/M331R/P208A/P217A/Q86L/T323A/T345S/V100A/V358M); assay type: binding
HLA-A11 (A*1101) = HLA-A11 (A*1101) (Homo sapiens, UniProt P04439, A114D/D185E/E176A/F33Y/L180Q/S129P/T187R); assay type: binding

Molecule CC[C@H](C)[C@H](NC(=O)[C@H](CC(C)C)NC(=O)[C@@H](NC(=O)[C@H](CCC(=O)O)NC(=O)[C@@H](N)CC(N)=O)[C@@H](C)CC)C(=O)N[C@@H](CCCNC(=N)N)C(=O)N[C@@H](CS)C(=O)N[C@H](C(=O)N[C@H](C(=O)N[C@@H](CS)C(=O)N[C@@H](CCC(N)=O)C(=O)N[C@@H](CCCNC(=N)N)C(=O)N1CCC[C@H]1C(=O)N[C@@H](CC(C)C)C(=O)N[C@@H](CS)C(=O)O)[C@@H](C)CC)[C@@H](C)CC [Peptide 85.0031] has a pIC50 (DRB1*0405; read-out: Binding affinity DRB1 *0405) of 5.13.
With CC[C@H](C)[C@H](NC(=O)[C@H](CC(C)C)NC(=O)[C@@H](N)Cc1ccc(O)cc1)C(=O)N[C@@H](Cc1c[nH]cn1)C(=O)N[C@H](C(=O)N1CCC[C@H]1C(=O)N[C@@H](CS)C(=O)N[C@@H](CS)C(=O)N[C@@H](CCC(=O)O)C(=O)N[C@@H](CS)C(=O)N[C@@H](CCCCN)C(=O)O)C(C)C [Peptide 86.0032] the pIC50 (HLA-A3.2 (A*0301); read-out: A*0301, Table 14, binding to A*0301) was 5.76, the pIC50 (A31 (A*3101); read-out: A*3101) was 4.48 and the pIC50 (A*3301; read-out: A*3301) was 5.09. For the same molecule, the pIC50 (A*6801; read-out: A*6801) was 6.75.
For CC[C@H](C)[C@H](NC(=O)[C@H](CC(N)=O)NC(=O)[C@H](CO)NC(=O)[C@@H](NC(=O)[C@@H](NC(=O)[C@H](CC(C)C)NC(=O)[C@H](CC(C)C)NC(=O)[C@@H]1CCCN1C(=O)[C@@H]1CCCN1C(=O)[C@H](CS)NC(=O)[C@H](CCCCN)NC(=O)[C@H](CC(C)C)NC(=O)[C@H](CCC(N)=O)NC(=O)[C@@H](NC(=O)[C@@H](N)CC(C)C)C(C)C)[C@@H](C)CC)[C@@H](C)O)C(=O)O [Peptide 89.0021], the pIC50 (DRB1*0405) was 5.12.
CC[C@H](C)[C@H](NC(=O)[C@H](Cc1c[nH]cn1)NC(=O)[C@H](C)NC(=O)[C@H](Cc1ccc(O)cc1)NC(=O)[C@H](CC(C)C)NC(=O)[C@@H](NC(=O)[C@H](Cc1ccccc1)NC(=O)[C@@H]1CCCN1C(=O)[C@H](CCC(N)=O)NC(=O)[C@@H](NC(=O)[C@H](CC(C)C)NC(=O)[C@@H](NC(=O)[C@H](CCCCN)NC(=O)[C@@H](N)Cc1ccccc1)[C@@H](C)O)[C@@H](C)CC)[C@@H](C)CC)C(=O)N[C@@H](CCC(N)=O)C(=O)O [Peptide 89.0025] was tested, and the pIC50 (DRB1*1302) was 5.94.
CSCC[C@H](NC(=O)[C@H](CCC(N)=O)NC(=O)[C@H](CCC(N)=O)NC(=O)[C@@H](NC(=O)[C@H](CCC(=O)O)NC(=O)[C@@H](NC(=O)[C@H](CCC(=O)O)NC(=O)[C@@H](NC(=O)[C@@H](N)CC(N)=O)[C@@H](C)O)C(C)C)[C@@H](C)O)C(=O)N[C@H](C(=O)N[C@@H](CCC(N)=O)C(=O)N[C@@H](CCC(N)=O)C(=O)N[C@H](C(=O)N[C@@H](CCC(=O)O)C(=O)N[C@@H](CO)C(=O)O)C(C)C)C(C)C [Peptide 89.0059] showed a pIC50 (DRB1*1302) of 5.08.
Work on CC[C@H](C)[C@H](NC(=O)[C@H](C)NC(=O)[C@H](CCC(N)=O)NC(=O)[C@H](CC(C)C)NC(=O)[C@H](C)NC(=O)[C@H](CCCCN)NC(=O)[C@@H](N)CC(N)=O)C(=O)N[C@@H](CCC(=O)O)C(=O)N[C@@H](CC(C)C)C(=O)N[C@@H](CCC(N)=O)C(=O)N[C@@H](CC(C)C)C(=O)N[C@H](C(=O)N[C@@H](CC(C)C)C(=O)N[C@@H](CCC(=O)O)C(=O)N[C@H](C(=O)O)[C@@H](C)O)[C@@H](C)O [Peptide 89.0151] yielded a pIC50 (DRB1*0405) of 5.40 and a pIC50 (DRB1*0802) of 4.82.
Work on CC[C@H](C)[C@H](NC(=O)[C@H](C)NC(=O)[C@H](CCCCN)NC(=O)[C@@H](N)Cc1c[nH]cn1)C(=O)N[C@@H](CCC(=O)O)C(=O)N[C@@H](CC(C)C)C(=O)N[C@@H](CCC(N)=O)C(=O)N[C@@H](CCSC)C(=O)N[C@@H](C)C(=O)N[C@@H](CC(C)C)C(=O)N[C@@H](CCC(N)=O)C(=O)NCC(=O)N[C@@H](CC(C)C)C(=O)N[C@@H](C)C(=O)N[C@@H](CCC(N)=O)C(=O)O [Peptide 89.0160] yielded a pIC50 (DRB1*1302) of 5.40.
In the case of CC(C)C[C@H](NC(=O)[C@H](C)NC(=O)[C@H](CCCCN)NC(=O)[C@H](C)NC(=O)[C@H](CCCCN)NC(=O)[C@H](CO)NC(=O)[C@@H](NC(=O)[C@H](CO)NC(=O)[C@H](CC(C)C)NC(=O)[C@H](C)NC(=O)[C@@H]1CCCN1C(=O)[C@@H](NC(=O)[C@@H](NC(=O)[C@H](CCC(N)=O)NC(=O)[C@@H](N)Cc1c[nH]cn1)C(C)C)C(C)C)C(C)C)C(=O)O [Peptide 89.0169], the pIC50 (DRB1*1302) was 6.06.
CC[C@H](C)[C@H](NC(=O)[C@H](C)NC(=O)[C@H](CCC(N)=O)NC(=O)[C@H](CC(C)C)NC(=O)[C@H](C)NC(=O)[C@H](CCCCN)NC(=O)[C@H](C)N)C(=O)N[C@@H](CCC(=O)O)C(=O)N[C@@H](CC(C)C)C(=O)N[C@@H](CCC(N)=O)C(=O)N[C@@H](CCSC)C(=O)N[C@@H](CCSC)C(=O)N[C@@H](CC(C)C)C(=O)N[C@@H](CCC(=O)O)C(=O)N[C@H](C(=O)O)[C@@H](C)O [Peptide 89.0171] showed a pIC50 (DRB1*1302) of 6.30.
For CC[C@H](C)[C@H](NC(=O)[C@H](CCCCN)NC(=O)[C@H](CC(=O)O)NC(=O)[C@H](CCC(N)=O)NC(=O)[C@H](CS)NC(=O)[C@@H](NC(=O)[C@H](CC(N)=O)NC(=O)[C@H](CC(C)C)NC(=O)[C@@H](N)CCCNC(=N)N)C(C)C)C(=O)N[C@@H](CC(C)C)C(=O)N[C@H](C(=O)N[C@@H](Cc1c[nH]cn1)C(=O)N[C@@H](Cc1ccc(O)cc1)C(=O)N[C@@H](CCC(=O)O)C(=O)N[C@@H](CC(N)=O)C(=O)O)[C@@H](C)O [Peptide 90.0160], the pIC50 (DRB1*0405) was 5.17.
With CC(C)C[C@H](NC(=O)[C@@H](NC(=O)[C@H](CC(=O)O)NC(=O)[C@H](CC(C)C)NC(=O)[C@@H](NC(=O)[C@@H](NC(=O)[C@@H]1CCCN1C(=O)[C@H](CC(=O)O)NC(=O)[C@H](CO)NC(=O)[C@@H](N)CCCNC(=N)N)C(C)C)[C@@H](C)O)C(C)C)C(=O)N[C@@H](Cc1ccc(O)cc1)C(=O)O [Peptide 1470.06] the pIC50 (A*2902) was < 4.70.
Work on CC[C@H](C)[C@H](NC(=O)[C@H](CCCCN)NC(=O)[C@@H](NC(=O)[C@@H](NC(=O)[C@@H](N)C(C)C)[C@@H](C)O)[C@@H](C)CC)C(=O)NCC(=O)NCC(=O)N[C@@H](CCC(N)=O)C(=O)N[C@@H](CC(C)C)C(=O)N[C@@H](CCCNC(=N)N)C(=O)O [Peptide 1516.01] yielded a pIC50 (HLA-A11 (A*1101)) of 7.19, a pIC50 (A31 (A*3101)) of 7.24 and a pIC50 (A*3301) of 5.22. It also gave a pIC50 (A*6801) of 7.51.
For CC[C@H](C)[C@H](NC(=O)[C@H](CCC(=O)O)NC(=O)[C@H](CC(C)C)NC(=O)[C@H](C)NC(=O)[C@H](CO)NC(=O)[C@@H](NC(=O)[C@@H](N)CC(C)C)[C@@H](C)O)C(=O)N1CCC[C@H]1C(=O)N[C@@H](Cc1ccc(O)cc1)C(=O)O [Peptide 1549.40], the pIC50 (A*2902) was 6.74.
CC[C@H](C)[C@H](NC(=O)[C@H](C)NC(=O)[C@@H](NC(=O)[C@@H](NC(=O)[C@H](CC(N)=O)NC(=O)[C@H](CC(C)C)NC(=O)[C@H](Cc1ccccc1)NC(=O)[C@H](CCCCN)NC(=O)[C@@H](NC(=O)[C@H](CCCNC(=N)N)NC(=O)[C@H](CCC(N)=O)NC(=O)[C@H](CCCCN)NC(=O)[C@@H](N)CCC(=O)O)[C@@H](C)O)[C@@H](C)O)C(C)C)C(=O)N1CCC[C@H]1C(=O)N[C@@H](CC(=O)O)C(=O)O [Peptide 1601.19] was tested, and the pIC50 (DRB1*1302) was 6.59.
For CC[C@H](C)[C@H](N)C(=O)N[C@@H](CC(C)C)C(=O)N[C@@H](CCCNC(=N)N)C(=O)N[C@@H](CCC(N)=O)C(=O)N[C@@H](CCCNC(=N)N)C(=O)N[C@@H](CCCCN)C(=O)N[C@H](C(=O)N[C@@H](CC(=O)O)C(=O)N[C@@H](CCCNC(=N)N)C(=O)O)[C@@H](C)CC [Peptide 9017.0121], the pIC50 (HLA-A3.2 (A*0301)) was 5.11, the pIC50 (HLA-A11 (A*1101)) was < 4.70 and the pIC50 (A31 (A*3101)) was 8.14. For the same molecule, the pIC50 (A*3301) was 7.59 and the pIC50 (A*6801) was < 4.70.
Work on CC(C)C[C@H](NC(=O)[C@H](Cc1ccccc1)NC(=O)[C@H](Cc1c[nH]cn1)NC(=O)[C@H](CO)NC(=O)[C@H](CC(C)C)NC(=O)[C@H](CC(=O)O)NC(=O)[C@H](Cc1ccccc1)NC(=O)[C@H](C)NC(=O)[C@H](C)N)C(=O)N[C@@H](CCCCN)C(=O)O [Peptide 9017.0190] yielded a pIC50 (HLA-A3.2 (A*0301)) of 8.06, a pIC50 (HLA-A11 (A*1101)) of 8.70 and a pIC50 (A31 (A*3101)) of 7.02. The pIC50 (A*3301) was 5.59 and the pIC50 (A*6801) was 8.60.
CC[C@H](C)[C@H](NC(=O)[C@H](CCCCN)NC(=O)[C@H](CCCNC(=N)N)NC(=O)[C@H](CCC(N)=O)NC(=O)[C@H](CCCNC(=N)N)NC(=O)[C@H](CC(C)C)NC(=O)[C@@H](NC(=O)[C@@H](N)CCCCN)[C@@H](C)CC)C(=O)N[C@@H](CC(=O)O)C(=O)N[C@@H](CCCNC(=N)N)C(=O)O [Peptide 9017.0246] was tested, and the pIC50 (HLA-A11 (A*1101)) was 5.29, the pIC50 (A31 (A*3101)) was 6.78 and the pIC50 (A*3301) was 5.43. The pIC50 (A*6801) was < 4.70.
